# Like-named read-outs stand apart in the source and are kept apart here.
# Assays:
# [1] = test system: PPARGC1a-PGC1a-, TFAM, subunits 1 and 2 of cytochrome oxidase, Nrf1 and TFB2M; conditions: HepG2, 3 hours; for expression of mitochondrial transcription factors (PGC1a, TFAM, cytochrome oxidase subunits 1 and 2 mRNA): FIG. 1b; for expression of mitochondrial transcription factors (Nrf1 and TFB2M mRNA): FIG. 3a
# HepG2 cells = conditions: HepG2, 10 nM, FIG. 4
# [2] = listed as 11β-hydroxypregnenolone
smiles,measurement,setting,value
"CC(=O)C1CC[C@H]2[C@@H]3CC=C4CC(O)CC[C@]4(C)[C@H]3[C@@H](O)C[C@]12C (stereo partly drawn) [Compound 1039, 1-((8S,9S,10R,11S,13S,14S)-3,11-dihydroxy-10,13-dimethyl-2,3,4,- 7,8,9,10,11,12,13,14,15,16,17-tetradecahydro-1H-cyclopenta[a]-phenanthren-17-yl)ethanone]","expression of mitochondrial transcription factors (PGC1a, TFAM, cytochrome oxidase subunits 1 and 2 mRNA)",[1],expresses mitochondrial transcription factors as early as 3 hours of exposure
same,"expression of mitochondrial transcription factors (PGC1a, TFAM, cytochrome oxidase subunits 1 and 2 mRNA)",[1]; [2],stimulation of expression of mitochondrial transcription factors
same,expression of mitochondrial transcription factors (Nrf1 and TFB2M mRNA),[1],stimulates the expression of mitochondrial transcription factors
same,expression of mitochondrial transcription factors (Nrf1 and TFB2M mRNA),[1]; [2],stimulation of expression of mitochondrial transcription factors
same,mitochondrial superoxide generation,HepG2 cells,reduces superoxide generation in mitochondria
same,mitochondrial superoxide generation,HepG2 cells; [2],reduction of mitochondrial superoxide generation
